Experimental data: publication PMC4381330, “Identification of a novel selective agonist of PPARγ with no promotion of adipogenesis and less inhibition of osteoblastogenesis” (Scientific Reports, 2015)

Chains of the proteins cited; added tags and fusions are not shown. Residues count along the entry.
UniProt P37231, 238-503 limits assumed: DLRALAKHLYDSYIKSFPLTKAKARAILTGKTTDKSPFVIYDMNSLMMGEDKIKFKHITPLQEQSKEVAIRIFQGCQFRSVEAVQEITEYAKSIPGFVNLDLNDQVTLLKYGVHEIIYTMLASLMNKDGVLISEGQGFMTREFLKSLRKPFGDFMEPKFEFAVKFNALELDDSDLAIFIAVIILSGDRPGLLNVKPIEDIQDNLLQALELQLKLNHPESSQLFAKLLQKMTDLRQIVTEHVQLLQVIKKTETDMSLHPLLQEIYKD

Tests used:
PPARδ = molecular target: T1, PPARδ (Homo sapiens, UniProt Q03181); assay: Receptor-specific transactivation, GAL4-LBD reporter in HEK293T cells; format: cell-based; settings: 30 μM F12016
T1 construct: expressed in transfected cells; host or cells: HEK293T
T1 sequence (Q03181 211-439 limits assumed): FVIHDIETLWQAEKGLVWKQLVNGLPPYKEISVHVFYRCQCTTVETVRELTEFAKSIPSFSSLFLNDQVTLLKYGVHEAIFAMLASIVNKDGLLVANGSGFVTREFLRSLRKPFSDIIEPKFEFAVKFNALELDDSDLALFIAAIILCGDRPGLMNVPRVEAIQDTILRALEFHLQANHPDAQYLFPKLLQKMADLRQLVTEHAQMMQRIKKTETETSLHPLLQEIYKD

[1] = molecular target: T2, human PPARγ-LBD (coactivator peptide recruitment) (Homo sapiens, UniProt P37231); assay: LanthaScreen TR-FRET coactivator peptide recruitment assay; format: biochemical; settings: compared with rosiglitazone
T2 construct: incubated with GST-fused human PPARγ-LBD, terbium-labeled anti-GST antibody; purchased Invitrogen

[2] = molecular target: T3, CDK5-mediated phosphorylation of PPARγ at Ser273 (Homo sapiens, UniProt P37231); design: method as in PMID 20651683; settings: cited from earlier work
T3 construct: 0.5 μg purified PPARγ-LBD protein was incubated with 50 ng CDK5/p25 kinase (Millipore); Millipore (CDK5/p25 only)

Substance	transactivation of PPARδ (PPARδ)	relative magnitude of PGC-1α recruitment [1]	inhibition of PPARγ phosphorylation at Ser273 compared with rosiglitazone [2]
2-[2-(1, 2-dimethyl-1H-indol-3-yl)-2-oxo-acetylamino]-benzamide [Compound F12016]	no effects	half of rosiglitazone	–
MRL24	–	–	at least equivalent inhibition
